Results: ChEMBL document CHEMBL4680272 (Eur J Med Chem, 2020)

Assay: in vivo
Conditions: Sprague-Dawley, rat, po, 10 mg/kg

`CCC(CC)O[C@@H]1C=C(C(=O)O)C[C@H](N)[C@H]1NC(C)=O` [OSELTAMIVIR CARBOXYLATE] gave a half-life at 24 h of 10.6 h.
